Reader value (lateral flow, CF1522 gold) data for one substance are collected here from patent publication US20160238596.

The series deals with Indicator molecule containing the cleavable sequence GPQGIFGQ with a terminal biotin group connected via a polyethylene glycol spacer/linker (intact).

With MMP 13 (Enzo), the Reader value (lateral flow, CF1522 gold) at 0.5 µg/ml MMP came to 6350 reader units.
